# Yeast mating assay 1: variants of the scFv Ab-14

Antigen: PDVDLGDISGINAS, a 14-residue peptide of the SARS-CoV-2 spike HR2 region.

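The parent was found by panning a naive human phage display library on the peptide. The library (AAYL50) carries one to three amino acid substitutions per variant, with no insertions or deletions. AlphaSeq pools MATa yeast showing the antibodies with MATalpha yeast showing the peptide. The frequency of each diploid, read from paired DNA barcodes, reflects how well the two displayed proteins bind. The ratio of observed to expected reads was calibrated, replicate by replicate, on BCL2-family standards whose Kd was known from biolayer interferometry. There are three technical replicates.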

Each scFv is VH, a 15-residue (Gly4Ser)3 linker, VL, as in the parent Ab-14, and differs from it in the CDRs of the light chain only.
VH: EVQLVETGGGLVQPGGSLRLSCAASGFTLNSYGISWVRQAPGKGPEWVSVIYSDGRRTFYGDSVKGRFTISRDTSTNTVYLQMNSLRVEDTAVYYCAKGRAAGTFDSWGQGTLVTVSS
VL: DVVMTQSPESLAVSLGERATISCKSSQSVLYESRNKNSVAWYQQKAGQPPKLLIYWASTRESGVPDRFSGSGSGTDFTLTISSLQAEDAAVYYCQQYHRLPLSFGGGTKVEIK

Changes read parent residue, position, new residue, counted from the first residue of the VL shown. Values are apparent Kd, the geometric mean of the replicates that gave a signal; lower means stronger binding. "nd" marks a missing value. The strain was present, yet no cells mated with the target were sequenced in any replicate, which points to weak or no binding. Nonspecific signal, from three strains lacking the peptide, appeared in 18% of pairings of library AAYL50, centred on 15 µM (5% of these signals below 970 nM); values are not corrected for it. Also given: how often the same scFv was detected with the empty control strains.

changes	apparent Kd	replicates with signal	signal with controls
L30C/N37G/S62P	9.7 nM	3 of 3	0 of 9
S33V/N37M/Q96Y	170 nM	3 of 3	0 of 9
S62Y/Q96F/L100H	160 µM	1 of 3	0 of 9
K24H/Y31L/R60N	nd	0 of 3	0 of 9
Y31Q/A57G/Q95L	6.1 nM	3 of 3	1 of 9
V29F/S33I/L102C	390 nM	2 of 3	0 of 9
E61K/Q95G	nd	0 of 3	2 of 9
V29L/K36T/Y97P	nd	0 of 3	1 of 9
E32G/R60M	nd	0 of 3	0 of 9
K24N/N35M/N37A	260 nM	3 of 3	2 of 9
Q27F/W56L/R99Q	270 µM	2 of 3	0 of 9
S28D/Y31W/H98Q	6.7 nM	3 of 3	0 of 9
N35S/R60I/Q95Y	nd	0 of 3	0 of 9
V39Q/E61N/Y97L	nd	0 of 3	0 of 9
N35Q/W56A/R99F	4.9 nM	3 of 3	1 of 9
K24Q/S25V/Y31N	2.4 nM	3 of 3	0 of 9
V29M/A40F/L102H	170 µM	1 of 3	0 of 9
N35G/S62I/R99L	26 nM	3 of 3	0 of 9
S33I/R34L/W56E	1.7 nM	3 of 3	2 of 9
S58Y/T59Y/R99V	63 nM	3 of 3	0 of 9
S25N/Q27F/Y31G	4.1 nM	3 of 3	3 of 9
V29P/R34D/Q95D	1.7 µM	1 of 3	0 of 9
T59W/R99A/L100Y	8.9 µM	2 of 3	5 of 9
K36H/S58W/Y97G	13 µM	3 of 3	0 of 9
Q27E/S33R/S62V	24 nM	3 of 3	2 of 9
N37D/Q96D/P101V	nd	0 of 3	2 of 9
S25D/R60Q/L100M	2.8 µM	1 of 3	1 of 9
S26W/V39H/A57T	2.1 µM	2 of 3	0 of 9
V29L/N35P/N37L	990 nM	3 of 3	0 of 9
N37R/W56G/Q96P	7.1 µM	3 of 3	4 of 9
V29L/T59D/E61S	10 nM	3 of 3	1 of 9
Y31F/E32W/R60N	480 nM	1 of 3	0 of 9
R34C/A57F/Q95Y	nd	0 of 3	3 of 9
S25D/R99P/S103I	15 nM	3 of 3	2 of 9
W56P/T59E	nd	0 of 3	0 of 9
Y31E/K36I/R99F	4.9 nM	3 of 3	1 of 9
E32I/T59A/L100E	nd	0 of 3	1 of 9
A57D/S62H/S103E	22 nM	3 of 3	3 of 9
V39W/A40Y/L100Q	nd	0 of 3	0 of 9
Q27P/A57N/Y97S	nd	0 of 3	0 of 9
Y31T/Y97A/S103I	8.6 nM	3 of 3	2 of 9
L30A/E32G/S33G	29 nM	3 of 3	3 of 9
W56D/R60S/Q95G	15 nM	3 of 3	0 of 9
W56K/A57D/Q96F	450 nM	3 of 3	3 of 9
S28V/S38G/W56P	3.8 µM	1 of 3	1 of 9
K24Y/R60P/P101L	1.2 µM	2 of 3	1 of 9
S58E/E61S/Q96F	19 nM	3 of 3	1 of 9
S26Q/N37D/A57G	38 nM	3 of 3	1 of 9
S28C/N35M/S58D	110 nM	3 of 3	2 of 9
L30Q/A40E/W56H	nd	0 of 3	2 of 9
V29L/E32V/E61N	20 nM	3 of 3	0 of 9
V29Q/L30R/K36V	26 nM	3 of 3	0 of 9
K36V/E61V/H98M	2.3 nM	3 of 3	1 of 9
S28F/N35F/N37G	nd	0 of 3	0 of 9
S25Q/S28W/N35Q	140 nM	3 of 3	0 of 9
V29C/Q95H/Y97S	17 nM	3 of 3	1 of 9
R34S/A40L/S103Y	1.9 mM	1 of 3	6 of 9
E61Q/H98K/L100Y	45 µM	1 of 3	0 of 9
K24D/S26A/S58G	22 µM	3 of 3	8 of 9
K36M/S62K/Q95N	47 nM	3 of 3	4 of 9
E32M/K36N/P101T	nd	0 of 3	2 of 9
Q27G/V39W/L100S	19 µM	2 of 3	7 of 9
K24R/S28R/Q96I	nd	0 of 3	2 of 9

Excerpt, the final 9 entries:

changes	apparent Kd	replicates with signal	signal with controls
S25Q/S28W/N35Q	140 nM	3 of 3	0 of 9
V29C/Q95H/Y97S	17 nM	3 of 3	1 of 9
R34S/A40L/S103Y	1.9 mM	1 of 3	6 of 9
E61Q/H98K/L100Y	45 µM	1 of 3	0 of 9
K24D/S26A/S58G	22 µM	3 of 3	8 of 9
K36M/S62K/Q95N	47 nM	3 of 3	4 of 9
E32M/K36N/P101T	nd	0 of 3	2 of 9
Q27G/V39W/L100S	19 µM	2 of 3	7 of 9
K24R/S28R/Q96I	nd	0 of 3	2 of 9

Source: Engelhart et al. 2022 (doi:10.1038/s41597-022-01779-4), MIT Lincoln Laboratory and A-Alpha Bio; data file from the FLAb repository.